Experimental data published in the OPERA property sets (Mansouri et al. 2018).

Conditions: experimental values compiled from the literature

Row | Compound | logP
1 | O=[N+]([O-])c1cc([N+](=O)[O-])c(O)c([N+](=O)[O-])c1 | 1.44
2 | O=P1(N(CCCl)CCCl)OCCCN1Cl (configuration not stated) | 1.94
